Measured values from patent publication US20260226155A1, “Anti-ADM antibodies, anti-ADM antibody fragment or anti-ADM non-Ig scaffold for therapy or prevention of immune effector cell therapy side effects” (PAM Theragnostics GmbH, priority 2024, published 2026).

Molecular target: T1, hADM (Homo sapiens, UniProt P35318)
T1 sequence (P35318 95-146 limits assumed): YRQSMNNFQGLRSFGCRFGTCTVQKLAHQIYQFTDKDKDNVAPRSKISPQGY
Assay: Stability of human Adrenomedullin in human citrate plasma

## CC[C@H](C)[C@H](NC(=O)[C@H](CCC(N)=O)NC(=O)[C@H](Cc1c[nH]cn1)NC(=O)[C@H](C)NC(=O)[C@H](CC(C)C)NC(=O)[C@H](CCCCN)NC(=O)[C@H](CCC(N)=O)NC(=O)[C@@H](NC(=O)[C@@H](NC(=O)[C@@H]1CSSC[C@H](NC(=O)CNC(=O)[C@H](Cc2ccccc2)NC(=O)[C@H](CO)NC(=O)[C@H](CCCNC(=N)N)NC(=O)[C@H](CC(C)C)NC(=O)CNC(=O)[C@H](CCC(N)=O)NC(=O)[C@H](Cc2ccccc2)NC(=O)[C@H](CC(N)=O)NC(=O)[C@H](CC(N)=O)NC(=O)[C@H](CCSC)NC(=O)[C@H](CO)NC(=O)[C@H](CCC(N)=O)NC(=O)[C@H](CCCNC(=N)N)NC(=O)[C@@H](N)Cc2ccc(O)cc2)C(=O)N[C@@H](CCCNC(=N)N)C(=O)N[C@@H](Cc2ccccc2)C(=O)NCC(=O)N[C@@H]([C@@H](C)O)C(=O)N1)[C@@H](C)O)C(C)C)C(=O)N[C@@H](Cc1ccc(O)cc1)C(=O)N[C@@H](CCC(N)=O)C(=O)N[C@@H](Cc1ccccc1)C(=O)N[C@H](C(=O)N[C@@H](CC(=O)O)C(=O)N[C@@H](CCCCN)C(=O)N[C@@H](CC(=O)O)C(=O)N[C@@H](CCCCN)C(=O)N[C@@H](CC(=O)O)C(=O)N[C@@H](CC(N)=O)C(=O)N[C@H](C(=O)N[C@@H](C)C(=O)N1CCC[C@H]1C(=O)N[C@@H](CCCNC(=N)N)C(=O)N[C@@H](CO)C(=O)N[C@@H](CCCCN)C(=O)N[C@H](C(=O)N[C@@H](CO)C(=O)N1CCC[C@H]1C(=O)N[C@@H](CCC(N)=O)C(=O)NCC(=O)N[C@@H](Cc1ccc(O)cc1)C(N)=O)[C@@H](C)CC)C(C)C)[C@@H](C)O [hADM]
  half-life at 10 nM: 7.8 h
